One assay deals with p110β/p85α (Homo sapiens, UniProt P42338). Briefly: Transcreener KINASE Assay, kinase inhibition of p110β/p85α. Conditions: 1 uM test compound.
The target in another assay is p110δ/p85α (Homo sapiens, UniProt O00329). The experiment in a line: Transcreener KINASE Assay, kinase inhibition of p110δ/p85α. The class given is biochemical. Conditions: 1 uM test compound.
In the next assay the target is PI3Kγ (Mus musculus, UniProt Q9JHG7). The experiment in a line: Acumen Assay - Raw264.7 p-AKT Assay (C5a stimulated). Conditions: read-out: PI3Kγ cell-C5a Raw264.7 IC50; Raw264.7 macrophage cells, compound 30 min, stimulated with 10 nM C5a for 5 min, p-AKT (Ser473) readout. The class given is cell-based.

Sequences of proteins named here, by UniProt entry; tags and fusion partners are left off. A change or cut given only in a name is not applied to a line headed by its entry. Residues count along the entry.
UniProt P42338, whole entry: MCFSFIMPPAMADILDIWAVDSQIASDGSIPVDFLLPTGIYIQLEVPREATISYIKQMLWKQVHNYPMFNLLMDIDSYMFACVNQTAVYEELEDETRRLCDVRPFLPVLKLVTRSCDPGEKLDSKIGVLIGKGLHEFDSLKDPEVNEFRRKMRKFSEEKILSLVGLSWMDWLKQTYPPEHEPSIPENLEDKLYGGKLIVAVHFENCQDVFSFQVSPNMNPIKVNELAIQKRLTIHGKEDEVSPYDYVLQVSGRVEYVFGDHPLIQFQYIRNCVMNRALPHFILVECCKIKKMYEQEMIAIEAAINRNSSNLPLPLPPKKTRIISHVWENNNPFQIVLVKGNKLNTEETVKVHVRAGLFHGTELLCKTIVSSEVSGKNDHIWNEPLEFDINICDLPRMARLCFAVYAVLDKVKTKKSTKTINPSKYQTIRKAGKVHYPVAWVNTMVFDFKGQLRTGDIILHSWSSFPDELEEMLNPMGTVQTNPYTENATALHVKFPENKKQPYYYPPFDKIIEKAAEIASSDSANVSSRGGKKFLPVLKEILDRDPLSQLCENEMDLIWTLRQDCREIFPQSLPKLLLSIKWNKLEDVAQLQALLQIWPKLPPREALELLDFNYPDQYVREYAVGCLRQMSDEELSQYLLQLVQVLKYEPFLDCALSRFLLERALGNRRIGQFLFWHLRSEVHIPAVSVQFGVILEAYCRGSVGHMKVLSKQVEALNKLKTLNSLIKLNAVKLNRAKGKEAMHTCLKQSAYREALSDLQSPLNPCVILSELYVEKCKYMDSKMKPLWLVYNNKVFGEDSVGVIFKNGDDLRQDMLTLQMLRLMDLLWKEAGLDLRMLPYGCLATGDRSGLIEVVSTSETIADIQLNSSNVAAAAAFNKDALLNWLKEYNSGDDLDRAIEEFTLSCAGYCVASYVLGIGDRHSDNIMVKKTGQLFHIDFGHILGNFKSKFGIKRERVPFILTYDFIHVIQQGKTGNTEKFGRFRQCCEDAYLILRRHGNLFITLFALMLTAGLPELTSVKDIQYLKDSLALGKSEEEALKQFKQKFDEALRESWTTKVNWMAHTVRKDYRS
UniProt O00329, whole entry: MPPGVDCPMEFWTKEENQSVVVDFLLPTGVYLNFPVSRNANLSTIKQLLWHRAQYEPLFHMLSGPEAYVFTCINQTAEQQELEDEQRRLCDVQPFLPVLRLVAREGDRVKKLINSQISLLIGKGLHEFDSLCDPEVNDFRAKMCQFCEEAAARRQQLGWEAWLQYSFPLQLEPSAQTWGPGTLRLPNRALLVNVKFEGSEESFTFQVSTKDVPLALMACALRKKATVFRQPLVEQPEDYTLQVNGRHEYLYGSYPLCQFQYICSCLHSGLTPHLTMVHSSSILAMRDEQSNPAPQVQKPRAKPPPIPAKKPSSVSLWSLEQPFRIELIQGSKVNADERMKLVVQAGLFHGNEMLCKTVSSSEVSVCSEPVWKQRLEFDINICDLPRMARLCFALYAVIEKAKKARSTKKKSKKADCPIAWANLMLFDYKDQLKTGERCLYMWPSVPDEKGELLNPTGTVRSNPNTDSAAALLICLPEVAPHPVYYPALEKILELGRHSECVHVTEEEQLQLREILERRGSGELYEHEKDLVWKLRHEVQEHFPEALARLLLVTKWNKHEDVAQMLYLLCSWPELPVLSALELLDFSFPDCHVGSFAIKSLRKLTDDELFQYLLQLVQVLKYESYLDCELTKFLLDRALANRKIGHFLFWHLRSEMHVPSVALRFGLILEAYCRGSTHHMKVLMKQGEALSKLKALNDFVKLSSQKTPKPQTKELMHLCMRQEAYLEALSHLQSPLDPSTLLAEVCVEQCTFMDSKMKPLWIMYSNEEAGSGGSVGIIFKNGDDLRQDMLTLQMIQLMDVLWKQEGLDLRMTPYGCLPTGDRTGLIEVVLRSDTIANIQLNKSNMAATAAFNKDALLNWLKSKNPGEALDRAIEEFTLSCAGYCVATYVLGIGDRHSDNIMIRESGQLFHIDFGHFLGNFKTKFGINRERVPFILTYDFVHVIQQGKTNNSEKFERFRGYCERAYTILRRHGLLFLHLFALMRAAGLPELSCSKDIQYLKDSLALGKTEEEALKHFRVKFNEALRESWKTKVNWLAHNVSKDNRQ
UniProt Q9JHG7, whole entry: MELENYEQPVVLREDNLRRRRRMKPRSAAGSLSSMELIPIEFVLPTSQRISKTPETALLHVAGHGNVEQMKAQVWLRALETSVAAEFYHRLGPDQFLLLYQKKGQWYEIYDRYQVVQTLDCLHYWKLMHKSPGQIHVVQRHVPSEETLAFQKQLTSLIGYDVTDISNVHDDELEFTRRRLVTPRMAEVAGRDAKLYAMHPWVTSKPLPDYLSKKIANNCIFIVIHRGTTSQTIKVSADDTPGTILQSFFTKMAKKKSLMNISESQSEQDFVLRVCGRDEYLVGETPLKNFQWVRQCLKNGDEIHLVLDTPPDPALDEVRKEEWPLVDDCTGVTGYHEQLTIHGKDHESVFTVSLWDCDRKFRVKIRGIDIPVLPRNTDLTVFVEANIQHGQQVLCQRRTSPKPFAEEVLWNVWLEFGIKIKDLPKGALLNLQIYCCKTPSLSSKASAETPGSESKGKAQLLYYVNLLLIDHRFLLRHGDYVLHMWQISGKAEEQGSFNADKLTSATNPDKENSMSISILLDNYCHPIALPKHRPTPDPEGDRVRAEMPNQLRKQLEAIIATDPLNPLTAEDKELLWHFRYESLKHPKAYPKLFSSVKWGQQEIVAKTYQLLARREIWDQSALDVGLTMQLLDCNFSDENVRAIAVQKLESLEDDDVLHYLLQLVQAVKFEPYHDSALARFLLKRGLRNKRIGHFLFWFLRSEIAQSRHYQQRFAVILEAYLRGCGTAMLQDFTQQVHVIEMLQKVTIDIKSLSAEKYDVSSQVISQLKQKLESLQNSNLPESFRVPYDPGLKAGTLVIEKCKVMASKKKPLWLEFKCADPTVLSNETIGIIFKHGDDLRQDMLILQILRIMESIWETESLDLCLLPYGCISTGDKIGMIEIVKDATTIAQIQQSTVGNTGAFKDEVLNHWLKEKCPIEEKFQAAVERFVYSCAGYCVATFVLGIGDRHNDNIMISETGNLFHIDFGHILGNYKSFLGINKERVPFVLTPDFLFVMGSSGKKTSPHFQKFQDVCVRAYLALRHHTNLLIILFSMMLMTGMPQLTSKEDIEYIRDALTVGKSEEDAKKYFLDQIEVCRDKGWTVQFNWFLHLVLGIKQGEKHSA
UniProt P27986, whole entry partner: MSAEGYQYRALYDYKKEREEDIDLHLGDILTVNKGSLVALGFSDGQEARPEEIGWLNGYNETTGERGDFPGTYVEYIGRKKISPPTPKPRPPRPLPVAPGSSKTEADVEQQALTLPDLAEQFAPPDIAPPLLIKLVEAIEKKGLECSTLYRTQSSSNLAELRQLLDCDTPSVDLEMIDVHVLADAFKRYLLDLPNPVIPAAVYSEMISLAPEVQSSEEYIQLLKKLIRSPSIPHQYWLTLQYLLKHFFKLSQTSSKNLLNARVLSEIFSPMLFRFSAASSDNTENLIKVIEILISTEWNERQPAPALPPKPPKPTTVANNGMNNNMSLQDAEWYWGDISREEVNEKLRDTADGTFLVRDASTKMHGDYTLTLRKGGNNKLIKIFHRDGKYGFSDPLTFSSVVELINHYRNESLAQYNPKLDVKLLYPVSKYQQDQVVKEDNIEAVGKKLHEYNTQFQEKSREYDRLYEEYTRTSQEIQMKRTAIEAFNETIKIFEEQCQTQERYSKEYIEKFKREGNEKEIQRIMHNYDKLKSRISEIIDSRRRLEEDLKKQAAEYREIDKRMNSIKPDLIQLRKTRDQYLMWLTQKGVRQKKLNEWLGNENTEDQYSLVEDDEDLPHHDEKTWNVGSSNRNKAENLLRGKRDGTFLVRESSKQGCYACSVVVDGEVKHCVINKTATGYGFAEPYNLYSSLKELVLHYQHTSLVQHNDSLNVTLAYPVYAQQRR
UniProt P27986, 2-724 partner limits assumed: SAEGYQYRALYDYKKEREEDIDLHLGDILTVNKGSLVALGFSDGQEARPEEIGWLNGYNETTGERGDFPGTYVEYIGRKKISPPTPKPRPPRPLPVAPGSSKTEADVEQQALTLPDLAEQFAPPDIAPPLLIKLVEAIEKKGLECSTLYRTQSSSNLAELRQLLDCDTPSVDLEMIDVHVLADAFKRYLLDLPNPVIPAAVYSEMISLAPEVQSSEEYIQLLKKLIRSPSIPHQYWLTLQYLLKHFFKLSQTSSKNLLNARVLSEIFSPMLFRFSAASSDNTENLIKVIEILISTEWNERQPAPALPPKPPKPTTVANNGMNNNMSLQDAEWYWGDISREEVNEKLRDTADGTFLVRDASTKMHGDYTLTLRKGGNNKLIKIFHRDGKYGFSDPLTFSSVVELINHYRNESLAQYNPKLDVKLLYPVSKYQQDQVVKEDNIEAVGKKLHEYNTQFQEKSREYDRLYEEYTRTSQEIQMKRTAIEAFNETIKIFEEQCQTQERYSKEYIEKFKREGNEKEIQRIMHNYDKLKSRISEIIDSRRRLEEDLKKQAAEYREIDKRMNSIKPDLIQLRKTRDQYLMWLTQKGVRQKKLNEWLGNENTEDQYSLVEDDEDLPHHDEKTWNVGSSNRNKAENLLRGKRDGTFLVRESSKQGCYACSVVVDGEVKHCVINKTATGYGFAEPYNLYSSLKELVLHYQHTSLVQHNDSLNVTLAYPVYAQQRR

Molecules are shown by their SMILES. pIC50: −log10 of the molar value.

1 compound from patent US20150307520A1, “NOVEL HETEROARYL AND HETEROCYCLE COMPOUNDS, COMPOSITIONS AND METHODS THEREOF” (HUTCHISON MEDIPHARMA LIMITED, priority 2012, published 2015) can be followed below.

`C[C@H]1CN(c2nc(N)nc3c2C(=O)CCN3)[C@@H]1c1nn2ccc(Cl)c2c(=O)n1-c1ccccc1`: the “PI3Kβ IH % @ 1 uM” value on p110β/p85α is on record as 65.1%. Also, the “PI3Kδ IH % @ 1 uM” value at p110δ/p85α is listed as above 100%. Further, on PI3Kγ, the pIC50 is 7.74.
